From publication PMC3799725, “Detection of Active Matriptase Using a Biotinylated Chloromethyl Ketone Peptide” (PLoS ONE, 2013)

Columns and labels:
[1] = aqueous solution, under the experimental conditions described (20 mM Hepes pH 7.4, 140 mM NaCl, 0.1% BSA, 37°C); roughly estimated, data not shown
matriptase SPD = test: Chromogenic assay: inhibition of matriptase SPD cleavage of S2288; conditions: 0.2 nM SPD, 405 nm, representative of 3 independent experiments
[2] = system: matriptase (Caco-2 cells)

biotin-Arg-Gln-Arg-Arg-chloromethyl ketone
half-life [1]: ~25 min | inhibition of matriptase SPD after longer pre-incubation of inhibitor (matriptase SPD; 5 nM inhibitor pre-incubated 120 min or longer (120 and 180 min) at 37°C, Hepes pH 7.4, S2288 300 µM): gradually reduces the efficiency of biotin-RQRR-CMK inhibition | inhibition of matriptase SPD cleavage of chromogenic substrate (matriptase SPD; 50 µM inhibitor, no pre-incubation, 20 mM Hepes pH 7.4, 140 mM NaCl, 0.1% BSA, 10 min at 37°C, S2288 300 µM final): unable to cleave the chromogenic substrate | labeling level at pH 6.0 compared to pH 7.4 ([2]; 50 µM, 30 min at 37°C (figure 4 lanes 7 and 8)): Higher levels of biotin-RQRR-CMK reactive matriptase was observed when labeling was performed at pH 6.0 as compared to pH 7.4 | amount of matriptase reacting with biotin-RQRR-CMK, 2 min ([2]; 50 µM, basolateral side, 37°C, 2 min labeling (figure 2A lane 3)): below the detection limit of the assay | level of reactive matriptase compared with NHS-SS-biotin labeling ([2]; basolateral plasma membrane of Caco-2 cells): only low levels of biotin-RQRR-CMK-reactive matriptase could be detected
